According to PubChem BioAssay AID1347084 (National Center for Advancing Translational Sciences (NCATS), 2019):
Only a part is listed here, and it is no random draw. Results filed as inconclusive are left out. Activity calls are given as the source filed them. Calls come from the whole dose curve.

Experiment: qHTS for Inhibitors of the Functional Ribonucleoprotein Complex (vRNP) of Lymphocytic Choriomeningitis Arenaviruses (LCMV): LCMV Confirmatory Screen - GLuc reporter signal
Conditions: LCMV minigenome vRNP, Gaussia luciferase reporter

## CCC(=O)N(c1ccccc1)C1(COC)CCN(CCc2cccs2)CC1
  Potency: active: 49.8 µM
